Target: T1, V2R (Homo sapiens, UniProt P30518)
T1 construct: HA (N); expressed in transfected cells
Experiment: Co-immunoprecipitation of βarrestin2 constructs with HA-V2R
Type: binding
Details: HEK-293 cells stably expressing HA-V2R; AVP

βarrestin2: wild-type rat βarrestin2 (SEQ ID NO:3), tagged, used as comparator [reference compound]
binding with agonist activated V2Rs by co-immunoprecipitation: equivalent binding

Source: patent US20230227514A1, “BETA-ARRESTIN COMPOSITIONS AND ASSOCIATED METHODS” (Duke University, priority 2020, published 2023)
